# Target: serotonin (5-HT) uptake site (Rattus norvegicus, UniProt P31652)
# The chains behind the UniProt entries cited, without tags or fusion partners.
# UniProt P31652, whole entry: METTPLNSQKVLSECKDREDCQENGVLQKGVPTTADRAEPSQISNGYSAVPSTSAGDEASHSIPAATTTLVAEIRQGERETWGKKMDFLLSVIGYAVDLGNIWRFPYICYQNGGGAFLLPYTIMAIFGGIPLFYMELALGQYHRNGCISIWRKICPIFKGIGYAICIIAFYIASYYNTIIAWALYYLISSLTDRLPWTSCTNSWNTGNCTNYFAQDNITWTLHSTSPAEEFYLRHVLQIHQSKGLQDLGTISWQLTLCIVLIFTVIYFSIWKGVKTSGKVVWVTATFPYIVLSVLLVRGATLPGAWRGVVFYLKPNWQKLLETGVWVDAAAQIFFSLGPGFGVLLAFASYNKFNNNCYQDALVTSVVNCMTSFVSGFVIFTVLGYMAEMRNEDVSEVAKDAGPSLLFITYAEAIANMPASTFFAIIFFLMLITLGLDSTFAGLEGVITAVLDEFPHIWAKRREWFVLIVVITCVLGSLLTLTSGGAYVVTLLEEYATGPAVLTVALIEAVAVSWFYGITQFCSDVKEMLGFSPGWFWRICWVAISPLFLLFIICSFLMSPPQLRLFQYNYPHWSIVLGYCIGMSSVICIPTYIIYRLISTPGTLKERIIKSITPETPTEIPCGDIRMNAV
# Test: biochemical
# Details: Binding IC50 Values (nM) 5-HT Uptake, rat cerebral cortex
# Method: IC50 values (concentration required to inhibit 50% specific binding) were then determined by nonlinear regression analysis of the curves and tabulated below.
# [1] = single value or first value before slash
Structure (SMILES),IC50 [1],"IC50 (second value after slash, second value after slash, not explained)"
"CC(C)C[C@H](N)C1(c2ccc(Cl)cc2)CCC1 [(S)-DDMS, 1-[1-(4-chlorophenyl)cyclobutyl]-3-methyl-butylamine]",4.3 nM,–
CC(C)CC(N)C1(c2ccc(Cl)cc2)CCC1 (racemic) [(R/S)-DDMS],63 nM,14 nM

# — patent US20050228052A1, “Methods of treating, preventing and managing a sleep disorder using (S)-didesmethylsibutramine” (priority 2004, published 2005)
